Laboratory results published in PubChem BioAssay AID1477 (National Center for Advancing Translational Sciences (NCATS), 2009).
The entries are a selection whose mix differs from that of the whole data set. Inconclusive results are not listed. Some structures show a salt or complex split into parts, the way the source records it. Calls of active or inactive are those of the source. Calls come from the whole dose curve; as a rule, active = well fitted curve in the direction sought with a large enough effect; inconclusive = small, poorly fitted or top-dose-only effect, or effect the other way, or another doubt; inactive = no such curve, though single readings can be large or run the other way.

By UniProt entry, the sequences of proteins in these tests, tags left out.
UniProt Q01196, whole entry partner: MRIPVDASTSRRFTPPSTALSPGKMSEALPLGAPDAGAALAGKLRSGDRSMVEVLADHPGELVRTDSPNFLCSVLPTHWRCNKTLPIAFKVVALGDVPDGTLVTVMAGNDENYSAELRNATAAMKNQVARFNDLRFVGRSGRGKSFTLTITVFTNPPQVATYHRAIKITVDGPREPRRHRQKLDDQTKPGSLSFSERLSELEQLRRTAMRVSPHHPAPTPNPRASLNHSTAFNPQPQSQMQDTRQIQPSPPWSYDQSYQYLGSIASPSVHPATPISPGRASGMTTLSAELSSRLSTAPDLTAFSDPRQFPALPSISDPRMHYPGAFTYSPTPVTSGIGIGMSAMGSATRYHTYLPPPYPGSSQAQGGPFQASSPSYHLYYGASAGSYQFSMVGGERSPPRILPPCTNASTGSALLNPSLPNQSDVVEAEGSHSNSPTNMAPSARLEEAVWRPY
UniProt Q13951, whole entry: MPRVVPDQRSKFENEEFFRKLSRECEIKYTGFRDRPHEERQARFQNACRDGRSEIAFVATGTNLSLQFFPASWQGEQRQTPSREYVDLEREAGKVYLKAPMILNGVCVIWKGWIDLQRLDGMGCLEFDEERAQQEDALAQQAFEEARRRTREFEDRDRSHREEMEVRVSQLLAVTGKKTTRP

target: Runt-related transcription factor 1 (Homo sapiens) + Core-binding factor subunit beta (Homo sapiens) (UniProt Q01196+Q13951); experiment: qHTS Assay for Compounds Blocking the Interaction Between CBF-beta and RUNX1 for the Treatment of Acute Myeloid Leukemia; settings: AlphaScreen CBFb-His/RUNX1-biotin binding, biochemical; at 59.8 µM (top of the series) unless noted; note: % of control where 0% means no effect

| SMILES | activity, negative = inhibition |
| --- | --- |
| CN(C)c1ccc(C(=O)NCC2(N3CCCCC3)CCCCC2)cc1 | inactive: 8.49% |
| CCN1CCC(Nc2cccc(F)c2)CC1 | inactive: 0.775% |
| Fc1ccccc1NC1CCN(Cc2ccccc2)CC1 | inactive: -3.14% |
| CCCOc1ccc(C)cc1CN(CCCl)CCCl | inactive: 16.5% |
| CCC(CO)(C(=O)OC1CN2CCC1CC2)c1ccccc1 (stereo unspecified) | inactive: 1% |
| COc1cc(OC)cc(C(=O)NCC2(N3CCOCC3)CCCCC2)c1 | inactive: 3.97% |
| CC(C)(C)OC(=O)N1CCC(Nc2ccccc2)CC1 | inactive: 0.584% |
| CCOc1ncccc1C(=O)NCC1(N2CCOCC2)CCCCC1 | inactive: 4.68% |
| O=C(OC1CN2CCC1CC2)C1c2ccccc2C=Cc2ccccc21 (stereo unspecified) | inactive: 4.16% |
| O=C(O)c1cccc(Nc2c([N+](=O)[O-])cc([N+](=O)[O-])cc2[N+](=O)[O-])c1 | inactive: 12.9% |
| N/C(=N\O)c1c(N)no[n+]1[O-] | inactive: -0.221% |
| COc1ccc(C(=O)NCC2(N3CCOCC3)CCCCC2)cc1OC | inactive: 1.02% |
| c1ccc(CN2CCC(Nc3ccccc3)CC2)cc1 | inactive: -1.44% |
| ClCCOP(OCCCl)OCCCl | inactive: -1% [at 21.7 µM] |
| CCOC(=O)C(CC)C1=NC(C)(C)Cc2ccccc21.O=[N+]([O-])c1cc([N+](=O)[O-])c(O)c([N+](=O)[O-])c1 (stereo unspecified) | inactive: 9.93% |
| N#Cc1ccc(C(=O)NCC2(N3CCCCC3)CCCCC2)cc1 | inactive: -17.3% |
| COc1ccc(NC2CCN(C(=O)OC(C)(C)C)CC2)cc1 | inactive: 3.78% |
| CN1CCN(CCOC(=O)C(O)(c2ccccc2)c2ccccc2)CC1 | inactive: 1.37% |

| SMILES | activity, negative = inhibition |
| --- | --- |
| O=C(NCC1(N2CCOCC2)CCCCC1)c1cc(=O)[nH]c2ccccc12 | inactive: 2.08% |
| O=[N+]([O-])c1cc([N+](=O)[O-])c(NCC2CCS(=O)(=O)C2)c([N+](=O)[O-])c1 (stereo unspecified) | inactive: -27.1% |
| O=C(NCC1(N2CCCCC2)CCCCC1)c1cccc([N+](=O)[O-])c1 | inactive: 19.2% |
| N#CC1(Nc2ccccc2)CCN(CCc2ccccc2)CC1 | inactive: -3.73% |
| COc1ccc2c(c1O)-c1c(O)c(OC)cc3c1[C@H](C2)[N+](C)(C)CC3.O=[N+]([O-])c1cc([N+](=O)[O-])c([O-])c([N+](=O)[O-])c1[O-] | inactive: 0.0839% |
| O=C(OC1CN2CCC1CC2)c1ccc([N+](=O)[O-])cc1 (stereo unspecified) | inactive: 1.23% |
| CCOP(=O)(Cl)Cl | inactive: 7.75% [at 21.7 µM] |
| COc1ccc(CN(CCCl)CCCl)cc1Cl | inactive: -1.51% |
| CN(C)c1cccc(C(=O)NCC2(N3CCCCC3)CCCCC2)c1 | inactive: 5.2% |
| CC(C)c1ccc(NC2CCN(C(=O)OC(C)(C)C)CC2)cc1 | inactive: 7.31% |
| CCOC(=O)N1CCC(Nc2ccc(OC)cc2)CC1 | inactive: 5.98% |
| O=C(OC1CN2CCC1CC2)C1c2ccccc2Oc2ccccc21 (stereo unspecified) | inactive: 7.22% |
| N#CC1(Nc2ccccc2)CCN(Cc2ccccc2)CC1 | inactive: 2.76% |
| O=C(NCC1(N2CCOCC2)CCCCC1)c1cc2ccccc2o1 | inactive: -3.61% |
| COc1ccc(C(=O)NCC2(N3CCCCC3)CCCCC2)c(OC)c1OC | inactive: -2.37% |
| Cc1ccc(OCC(C)C)c(CN(CCCl)CCCl)c1 | inactive: 5.23% |
| COc1ccc(NC2CCN(CCc3ccccc3)CC2)c(OC)c1 | inactive: -8.89% |
| CCOc1ccc(C)cc1CN(CCCl)CCCl | inactive: 7.86% |
